Experimental data published in ChEMBL document CHEMBL1152245 (Bioorg Med Chem Lett, 2008).

Chains of the proteins cited; added tags and fusions are not shown.
UniProt P20309, whole entry: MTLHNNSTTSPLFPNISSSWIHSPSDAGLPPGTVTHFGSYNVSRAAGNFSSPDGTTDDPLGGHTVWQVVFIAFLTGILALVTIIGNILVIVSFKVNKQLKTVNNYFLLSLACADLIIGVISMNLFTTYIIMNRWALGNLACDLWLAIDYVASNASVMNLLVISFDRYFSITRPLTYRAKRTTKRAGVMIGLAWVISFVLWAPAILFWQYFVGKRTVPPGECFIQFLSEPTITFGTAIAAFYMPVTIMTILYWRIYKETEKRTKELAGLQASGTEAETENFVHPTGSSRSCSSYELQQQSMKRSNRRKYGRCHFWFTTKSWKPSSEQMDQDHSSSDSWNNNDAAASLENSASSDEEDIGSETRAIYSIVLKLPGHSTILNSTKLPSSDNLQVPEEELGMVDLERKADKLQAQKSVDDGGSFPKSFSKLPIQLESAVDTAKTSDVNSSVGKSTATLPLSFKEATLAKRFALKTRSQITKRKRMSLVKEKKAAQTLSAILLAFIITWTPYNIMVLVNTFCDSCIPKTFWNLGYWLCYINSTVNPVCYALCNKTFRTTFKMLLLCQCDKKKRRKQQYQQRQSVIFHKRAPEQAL

Target: Muscarinic acetylcholine receptor M3 (Homo sapiens, UniProt P20309)
Experiment: Agonist activity at muscarinic M3 receptor
Type: functional

NC(=O)OCCN1CCC(N2CCC(n3c(=O)[nH]c4ccccc43)CC2)CC1
EC50: 113 nM
